Sequences of proteins named here, by UniProt entry; tags and fusion partners are left off. Residues count along the entry.
UniProt P22303, 32-614 limits assumed: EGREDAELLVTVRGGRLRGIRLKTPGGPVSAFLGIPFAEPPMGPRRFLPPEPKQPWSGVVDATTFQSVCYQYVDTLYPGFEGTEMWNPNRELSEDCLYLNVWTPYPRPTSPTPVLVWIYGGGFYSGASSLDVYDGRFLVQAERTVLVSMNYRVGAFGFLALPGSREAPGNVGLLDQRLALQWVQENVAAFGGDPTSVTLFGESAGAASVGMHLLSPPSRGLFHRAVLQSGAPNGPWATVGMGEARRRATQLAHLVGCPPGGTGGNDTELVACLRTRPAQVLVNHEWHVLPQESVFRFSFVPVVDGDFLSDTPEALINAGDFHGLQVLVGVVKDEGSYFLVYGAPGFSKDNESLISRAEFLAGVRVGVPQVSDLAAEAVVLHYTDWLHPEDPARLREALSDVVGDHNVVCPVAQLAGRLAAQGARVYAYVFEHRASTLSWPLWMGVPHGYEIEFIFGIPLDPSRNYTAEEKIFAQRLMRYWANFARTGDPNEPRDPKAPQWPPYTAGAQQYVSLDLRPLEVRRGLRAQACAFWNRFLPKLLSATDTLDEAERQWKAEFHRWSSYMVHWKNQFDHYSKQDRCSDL

In ChEMBL document CHEMBL5726243, “Acetylcholinesterase inhibitors and promnesiant serotonin 5-HT4 receptor agonists, their methods of preparation and the pharmaceutical compositions containing the same” (2017):

Target: Acetylcholinesterase (Homo sapiens, UniProt P22303)
Assay: Inhibition Assay: Acetylcholinesterase extracted from human erythrocytes (buffered aqueous solution, ≧500 units/mg, Sigma Aldrich) is diluted in a 20 mM HEPES buffer pH8, 0.1% Triton X-100, to obtain a standard solution with 2.5 units of enzyme activity/ml. 100 μL of a 0.3 mM 5,5-dithiobis(2-nitrobenzoic acid) (DTNB) solution in a pH 7.4 phosphate buffer are introduced into a 96-well plate, follow

For `COc1c(C(N)=O)cc(Cl)c(N)c1CC1CCN(CC2CCCCC2)CC1`, the IC50 was 3.73 µM.
